## scFv variants of Ab-95 (light chain) against a SARS-CoV-2 spike peptide

Values reported by Engelhart et al. 2022, doi:10.1038/s41597-022-01779-4 (FLAb copy).

Target peptide (SARS-CoV-2 spike, HR2 region): PDVDLGDISGINAS

Parent: Ab-95, a human scFv built as VH, a 15-residue (Gly4Ser)3 linker, VL. Only the CDRs of the light chain vary.
VH: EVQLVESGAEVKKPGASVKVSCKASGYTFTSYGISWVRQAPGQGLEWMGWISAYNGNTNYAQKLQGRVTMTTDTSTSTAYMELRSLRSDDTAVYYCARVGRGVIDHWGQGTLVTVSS
VL: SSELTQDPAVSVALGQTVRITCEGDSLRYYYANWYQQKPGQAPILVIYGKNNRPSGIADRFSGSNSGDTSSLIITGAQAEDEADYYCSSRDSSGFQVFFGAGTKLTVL

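Phage display of a naive human antibody library on the peptide gave the parent. AAYL52 was designed without a model: most single CDR substitutions and a random sample of double and triple ones. AlphaSeq pools MATa yeast showing the antibodies with MATalpha yeast showing the peptide. The frequency of each diploid, read from paired DNA barcodes, reflects how well the two displayed proteins bind. The ratio of observed to expected reads was calibrated, replicate by replicate, on BCL2-family standards whose Kd was known from biolayer interferometry. There are three technical replicates.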

Positions count from residue 1 of the parent VL; P54W puts W in place of P. Values are log10 of the apparent Kd in nM; lower means stronger binding. A pair that was not seen in that replicate is written "nd"; this usually means weak binding, but a binder can also be missed. Background: pairings of library AAYL52 with three empty control strains gave a value in 28% of cases (median 3.91, 5th percentile 2.90). Values in that range, when seen in few replicates, are hard to tell from nonspecific mating. For each scFv, signals with the empty controls are counted beside the result, with their mean in brackets.

changes,log10 Kd (nM) by replicate,signal with controls
P54W+S55A+S89D,4.21 nd 4.08,6/9 (3.82)
E23L+N51D+F98S,nd nd nd,1/9 (3.80)
Y29W+A32Q,5.09 nd nd,1/9 (4.74)
E23H+R28A+A32N,2.90 2.56 2.81,5/9 (3.88)
D25Q+S26R+Y29T,3.73 4.06 nd,2/9 (3.64)
D25M+S88T+D91F,3.50 1.37 nd,0/9
E23F+S89L+F98R,3.37 3.08 1.71,2/9 (3.85)
E23R+R28G+V97L,2.05 1.91 1.70,1/9 (4.41)
L27W+Y30P+V97L,2.86 3.41 2.84,1/9 (3.44)
G24F+R53N+S89D,nd nd nd,1/9 (4.33)
Y31N+A32M+P54I,nd 3.55 nd,0/9
Y29W+N33G+V97D,4.47 nd nd,2/9 (3.91)
D91A+S92A,2.97 3.04 3.26,1/9 (4.83)
K50E+S55W+S92N,2.43 2.16 2.06,1/9 (5.14)
N33F+K50Q+S88R,nd nd nd,1/9 (2.87)
S92M+Q96K,1.84 1.55 1.44,1/9 (2.80)
Y31A+G49F+R53A,3.53 nd nd,2/9 (3.77)
Y29R+S89L+R90V,3.69 3.20 3.41,1/9 (4.30)
F95D+V97Y,3.21 2.53 3.42,6/9 (3.70)
G49H+G94N+F98L,nd nd nd,1/9 (3.15)
E23N+S89R+Q96D,2.79 3.15 2.66,0/9
Y29K+P54H+S92D,3.69 4.06 4.05,4/9 (3.94)
G24M+D91K+V97Y,4.59 nd 4.52,4/9 (4.36)
Y30K+S88G+Q96L,2.20 1.80 1.49,1/9 (3.96)
G24S+P54H+S89H,nd 3.28 4.13,0/9
R28T+P54M+S55I,3.15 3.22 2.44,0/9
N52E+R53T+S92M,3.10 3.01 2.58,7/9 (3.92)
D25R+A32W+S55V,3.78 4.87 nd,2/9 (3.30)
R28F+N51R+G94N,3.64 4.00 nd,2/9 (3.30)
Y30T+N51V+S88T,2.56 2.63 2.68,5/9 (3.63)
D25G+R53A+V97A,nd nd nd,2/9 (3.40)
A32F+R53H,nd nd nd,1/9 (3.46)
G24W+S55H+R90K,nd nd nd,2/9 (3.67)
L27E+K50R+V97Y,nd nd nd,2/9 (3.32)
G24D+V97G+F98D,nd 3.25 nd,4/9 (3.57)

For reference, 6 entries of the list once more:

| changes | log10 Kd (nM) by replicate | signal with controls |
|---|---|---|
| G49H+G94N+F98L | nd nd nd | 1/9 (3.15) |
| R28F+N51R+G94N | 3.64 4.00 nd | 2/9 (3.30) |
| Y29R+S89L+R90V | 3.69 3.20 3.41 | 1/9 (4.30) |
| G24M+D91K+V97Y | 4.59 nd 4.52 | 4/9 (4.36) |
| F95D+V97Y | 3.21 2.53 3.42 | 6/9 (3.70) |
| Y29K+P54H+S92D | 3.69 4.06 4.05 | 4/9 (3.94) |